Some compounds may have been tested in ways that are not shown here.
Tests used:
[1] = ITC of Me4CB[8]•guest complexes; type: binding
[2] = ITC of CB[8]•guest complexes; type: binding
[3] = ITC best fit, 20 mM NaH2PO4 buffer (pH=7.4), figure legends
[4] = ITC best fit, 20 mM NaH2PO4 buffer (pH=7.4), figure legends and text
[5] = ITC sequential binding sites model, pH=7.4
[6] = ITC, 20 mM NaH2PO4 buffer (pH = 7.4), 298K, n = 1, Table 1
[7] = ITC, pH 7.4, 298K, n = 2, Table 1

CCC(=O)N(c1ccccc1)C1CCN(CCc2ccccc2)CC1
ΔH (ΔH1) of guest with Me4CB[8] [1, 3]: −3.58±0.01
Ka (Ka1) of guest with Me4CB[8] [1, 4]: (1.98±0.02)×10^6 M^−1
Ka2 of guest with Me4CB[8] [1, 5]: (9.52±0.03)×10^4 M^−1
ΔH2 of guest with Me4CB[8] [1, 5]: −1.94±0.01
Ka (Me4CB[8]•G) [1, 6]: (1.98 ± 0.02) × 10^6 M^−1
ΔH° (Me4CB[8]•G) [1, 6]: (−3.58 ± 0.01) kcal/mol
Ka (Me4CB[8]•guest) ([1]; ITC, n = 1, Table 3): (1.98 ± 0.02) × 10^6 M^−1
ΔH° (Me4CB[8]•guest) ([1]; ITC, n = 1, Table 3): (−3.58 ± 0.01) kcal/mol
Ka (Me4CB[8]•guest), second binding ([1]; ITC, n = 2, Table 3): (9.52 ± 0.03) × 10^4 M^−1
ΔH° (Me4CB[8]•guest), second binding ([1]; ITC, n = 2, Table 3): (−1.94 ± 0.01) kcal/mol
Ka (Me4CB[8]•G), second binding [1, 7]: (9.52 ± 0.03) × 10^4 M^−1
ΔH° (Me4CB[8]•G), second binding [1, 7]: (−1.94 ± 0.01) kcal/mol
ΔH (ΔH1) of guest with CB[8] [2, 3]: −10.8±0.06
Ka (Ka1) of guest with CB[8] [2, 4]: (1.9±0.09)×10^7 M^−1
Ka2 of guest with CB[8] [2, 5]: (3.7±0.04)×10^5 M^−1
ΔH2 of guest with CB[8] [2, 5]: −7.67±0.04
Ka (CB[8]•G) [2, 6]: (1.9 ± 0.09) × 10^7 M^−1
ΔH° (CB[8]•G) [2, 6]: (−10.8 ± 0.06) kcal/mol
Ka (CB[8]•guest) ([2]; ITC, n = 1, Table 2): (1.9 ± 0.09) × 10^7 M^−1
ΔG° (CB[8]•guest) ([2]; ITC, n = 1, Table 2): -9.94 kcal/mol
ΔH° (CB[8]•guest) ([2]; ITC, n = 1, Table 2): (−10.8 ± 0.06) kcal/mol
Ka (CB[8]•guest), second binding ([2]; ITC, n = 2, Table 2): (3.7 ± 0.04) × 10^5 M^−1
ΔG° (CB[8]•guest), second binding ([2]; ITC, n = 2, Table 2): -7.60 kcal/mol
ΔH° (CB[8]•guest), second binding ([2]; ITC, n = 2, Table 2): (−7.67 ± 0.04) kcal/mol
Ka (CB[8]•G), second binding ([2]; ITC, pH 7.4, 298K, n = 2 (second guest, sequential binding), Table 1): (3.7 ± 0.04) × 10^5 M^−1
ΔH° (CB[8]•G), second binding [2, 7]: (−7.67 ± 0.04) kcal/mol
